Laboratory results taken from BindingDB's records for doi:10.1124/jpet.105.092155 (Acadia Pharmaceuticals, 2005).

The chains behind the UniProt entries cited, without tags or fusion partners.
UniProt P14416, whole entry: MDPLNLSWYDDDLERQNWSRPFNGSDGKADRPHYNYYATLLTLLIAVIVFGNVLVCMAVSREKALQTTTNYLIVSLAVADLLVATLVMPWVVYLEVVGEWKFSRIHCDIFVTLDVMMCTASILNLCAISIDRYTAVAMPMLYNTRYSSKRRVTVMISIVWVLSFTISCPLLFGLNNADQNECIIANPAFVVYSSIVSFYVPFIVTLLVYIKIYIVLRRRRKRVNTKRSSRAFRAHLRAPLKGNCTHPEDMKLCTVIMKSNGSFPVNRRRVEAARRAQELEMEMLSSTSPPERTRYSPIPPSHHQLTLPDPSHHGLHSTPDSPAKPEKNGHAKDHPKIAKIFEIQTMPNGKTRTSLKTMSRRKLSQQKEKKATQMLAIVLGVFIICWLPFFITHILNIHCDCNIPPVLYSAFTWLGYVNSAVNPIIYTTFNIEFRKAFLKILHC

Biological target: D(2) dopamine receptor (Homo sapiens, UniProt P14416)

Ki: 2.4 nM and 0.5 nM
Compound: CCN1CCCC1CNC(=O)c1c(O)c(Cl)cc(Cl)c1OC (stereo unspecified) [3,5-Dichloro-N-(1-ethyl-pyrrolidin-2-ylmethyl)-2-hydroxy-6-methoxy-benzamide(Raclopride)]

Several values for one entry are separate records, joined by “and”; a condition that tells them apart may be missing. Equal entries are not always repeated.
